Assay type in all cases: cell-based
Test [1] has as its target T1, Adenosine receptor A2b (Homo sapiens) (UniProt P29275).
T1 sequence (whole entry): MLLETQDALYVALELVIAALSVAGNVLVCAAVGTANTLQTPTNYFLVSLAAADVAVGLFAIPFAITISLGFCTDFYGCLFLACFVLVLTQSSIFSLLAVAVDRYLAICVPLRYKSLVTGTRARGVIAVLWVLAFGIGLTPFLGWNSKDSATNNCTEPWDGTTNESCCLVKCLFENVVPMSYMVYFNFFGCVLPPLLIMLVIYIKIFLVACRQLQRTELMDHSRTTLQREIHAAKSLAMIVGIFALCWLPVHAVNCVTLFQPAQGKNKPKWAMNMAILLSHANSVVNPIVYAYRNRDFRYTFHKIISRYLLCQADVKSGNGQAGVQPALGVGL
Briefly: Displacement of [3H]DPCPX from human A2B adenosine receptor expressed in HEK293 cell membranes assessed as specific binding level at 1 x 10^-9 M after 60 mins by radioligand displacement assay relative to control. (In a radioligand displacement assay an active substance lowers the binding of a labelled ligand.)

Test [2] addresses T1, Adenosine receptor A2b (Homo sapiens). Briefly: Displacement of [3H]DPCPX from human A2B adenosine receptor expressed in HEK293 cell membranes assessed as specific binding level at 3 x 10^-9 M after 60 mins by radioligand displacement assay relative to control.
Test [3] shares this target. Briefly: Displacement of [3H]DPCPX from human A2B adenosine receptor expressed in HEK293 cell membranes assessed as specific binding level at 1 x 10^-8 M after 60 mins by radioligand displacement assay relative to control.
Test [4] shares this target. Briefly: Displacement of [3H]DPCPX from human A2B adenosine receptor expressed in HEK293 cell membranes assessed as specific binding level at 3 x 10^-8 M after 60 mins by radioligand displacement assay relative to control.
For test [5] the target is unchanged. Description: Displacement of [3H]DPCPX from human A2B adenosine receptor expressed in HEK293 cell membranes assessed as specific binding level at 1 x 10^-7 M after 60 mins by radioligand displacement assay relative to control.
Test [6] has the same target. Briefly: Displacement of [3H]DPCPX from human A2B adenosine receptor expressed in HEK293 cell membranes assessed as specific binding level at 3 x 10^-7 M after 60 mins by radioligand displacement assay relative to control.
Test [7] has the same target. Briefly: Displacement of [3H]DPCPX from human A2B adenosine receptor expressed in HEK293 cell membranes assessed as specific binding level at 1 x 10^-6 M after 60 mins by radioligand displacement assay relative to control.
Test [8] has the same target. Description: Displacement of [3H]DPCPX from human A2B adenosine receptor expressed in HEK293 cell membranes assessed as specific binding level at 3 x 10^-10 M after 60 mins by radioligand displacement assay relative to control.
For test [9], the species on record is Homo sapiens. Briefly: Selectivity index, ratio of Ki for human A1 adenosine receptor expressed in CHO cell membranes to Ki for human A2B adenosine receptor expressed in HEK293 cell membranes.
The species entered for test [10] is Homo sapiens. Briefly: Selectivity index, ratio of Ki for human A2A adenosine receptor expressed in HEK293 cell membranes to Ki for human A2B adenosine receptor expressed in HEK293 cell membranes.
The species named for test [11] is Homo sapiens. Description: Selectivity index, ratio of Ki for human A3 adenosine receptor expressed in HEK293 cell membranes to Ki for human A2B adenosine receptor expressed in HEK293 cell membranes.
The species named for test [12] is Homo sapiens. Briefly: Selectivity index, ratio of IC50 for recombinant human A1 adenosine receptor expressed in CHO cells to IC50 for human A2B adenosine receptor expressed in CHO cells.
The species entered for test [13] is Homo sapiens. Description: Selectivity index, ratio of IC50 for recombinant human A2A adenosine receptor expressed in CHO cells to IC50 for human A2B adenosine receptor expressed in CHO cells.
For test [14], the species on record is Homo sapiens. Briefly: Selectivity index, ratio of IC50 for recombinant human A3 adenosine receptor expressed in CHO cells to IC50 for human A2B adenosine receptor expressed in CHO cells.
The species named for test [15] is Mus musculus. Briefly: Selectivity index, ratio of IC50 for recombinant mouse A1 adenosine receptor expressed in CHO cells to IC50 for mouse A2B adenosine receptor expressed in CHO cells.
The species entered for test [16] is Mus musculus. Briefly: Selectivity index, ratio of IC50 for recombinant mouse A2A adenosine receptor expressed in CHO cells to IC50 for mouse A2B adenosine receptor expressed in CHO cells.
The species named for test [17] is Mus musculus. Description: Selectivity index, ratio of IC50 for recombinant mouse A3 adenosine receptor expressed in CHO cells to IC50 for mouse A2B adenosine receptor expressed in CHO cells.
The species entered for test [18] is Rattus norvegicus. Briefly: Selectivity index, ratio of IC50 for recombinant rat A2A adenosine receptor expressed in CHO cells to IC50 for rat A2B adenosine receptor expressed in CHO cells.

`CCn1c(=O)c2c(C)c(C(=O)N3CCC(O)CC3)sc2n(CCC(F)(F)F)c1=O`: the Activity in test [1] is 94.7%; in test [2], 98.2%; in [3], 103%; in [4] it was 76.6%; in test [5], 48.5%; in [6] it was 24.4%. For the same compound, the results for the Activity in test [7] and in test [8] were 12.7% and 96.7%, respectively. Besides, the results for the Ratio Ki in test [9], in test [10] and in test [11] were above 10, above 10 and above 100, respectively. Also, the Ratio IC50 in [12] was 20; in test [13], 13; in [14], above 100; in test [15] it was above 17; in test [16], 1.2; in test [17] it was above 17. Besides, the Ratio IC50 in [18] is 2.7.

Source of the values: ChEMBL document CHEMBL4422615, “Novel non-xanthine antagonist of the A2B adenosine receptor: From HTS hit to lead structure” (Eur J Med Chem, 2019).
